Measurements reported in patent US8815528B2, “Methods and systems for detecting MHC class I binding peptides” (Beckman Coulter, Inc., priority 2002, dated 2014).

Target: Monomer HLA-A*0201 (Homo sapiens, UniProt P04439, D140Y/D185E/D98H/E176V/E277Q/G131W/G231S/I119V/I121R/I166T/I218V/L300P/L318F/N151K/N90K/P208A/P217A/Q86G/Q94H/R138H/R169H/T345S)
Assay: Measurement of the peptide-MHC off rate (solid phase assay, anti-HLA-ABC-FITC read-out)
Type: binding
Conditions: at 37° C. and 32.5° C.

SMILES: CC(C)C[C@H](NC(=O)[C@@H](N)Cc1ccccc1)C(=O)N1CCC[C@H]1C(=O)N[C@@H](CO)C(=O)N[C@@H](CC(=O)O)C(=O)N[C@@H](Cc1ccccc1)C(=O)N[C@@H](Cc1ccccc1)C(=O)N1CCC[C@H]1C(=O)N[C@@H](CO)C(=O)N[C@H](C(=O)O)C(C)C [HBVcore]
- stability of the complex (in words): very good stability
